Data taken from ChEMBL document CHEMBL1121735, “Synthesis and adrenoceptor affinity of some highly polar beta-substituted catecholamines” (J Med Chem, 1981).

Amino acid sequences for entries named in this document (tags omitted). A change or cut given only in a name is not applied to a line headed by its entry.
UniProt P15823: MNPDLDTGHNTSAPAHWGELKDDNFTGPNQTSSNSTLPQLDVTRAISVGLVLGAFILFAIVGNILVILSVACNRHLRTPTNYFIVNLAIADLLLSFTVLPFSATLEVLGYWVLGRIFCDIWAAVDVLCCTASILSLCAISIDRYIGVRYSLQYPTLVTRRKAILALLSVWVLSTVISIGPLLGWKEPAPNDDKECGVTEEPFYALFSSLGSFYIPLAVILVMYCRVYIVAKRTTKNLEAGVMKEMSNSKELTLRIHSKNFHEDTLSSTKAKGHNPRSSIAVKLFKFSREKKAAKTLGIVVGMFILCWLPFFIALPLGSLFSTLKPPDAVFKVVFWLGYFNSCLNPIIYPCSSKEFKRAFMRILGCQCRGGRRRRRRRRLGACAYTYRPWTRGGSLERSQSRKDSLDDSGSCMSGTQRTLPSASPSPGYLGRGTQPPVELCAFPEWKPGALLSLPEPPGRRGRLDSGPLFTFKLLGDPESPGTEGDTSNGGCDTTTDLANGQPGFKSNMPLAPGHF
UniProt P23944: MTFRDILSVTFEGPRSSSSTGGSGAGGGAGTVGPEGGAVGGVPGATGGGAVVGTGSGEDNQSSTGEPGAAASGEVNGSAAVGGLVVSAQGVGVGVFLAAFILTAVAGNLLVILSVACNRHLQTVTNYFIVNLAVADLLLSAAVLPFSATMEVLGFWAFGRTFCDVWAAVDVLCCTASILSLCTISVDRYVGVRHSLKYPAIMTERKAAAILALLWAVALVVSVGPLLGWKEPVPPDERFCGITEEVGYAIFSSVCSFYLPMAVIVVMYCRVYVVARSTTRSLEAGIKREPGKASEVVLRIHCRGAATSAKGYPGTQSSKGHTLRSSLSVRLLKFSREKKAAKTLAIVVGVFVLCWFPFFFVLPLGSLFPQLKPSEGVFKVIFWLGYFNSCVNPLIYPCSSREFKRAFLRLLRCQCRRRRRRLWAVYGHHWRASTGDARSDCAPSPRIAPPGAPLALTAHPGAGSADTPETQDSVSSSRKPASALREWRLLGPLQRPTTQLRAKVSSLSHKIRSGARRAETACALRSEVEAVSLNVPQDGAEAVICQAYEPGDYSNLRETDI
UniProt P43140: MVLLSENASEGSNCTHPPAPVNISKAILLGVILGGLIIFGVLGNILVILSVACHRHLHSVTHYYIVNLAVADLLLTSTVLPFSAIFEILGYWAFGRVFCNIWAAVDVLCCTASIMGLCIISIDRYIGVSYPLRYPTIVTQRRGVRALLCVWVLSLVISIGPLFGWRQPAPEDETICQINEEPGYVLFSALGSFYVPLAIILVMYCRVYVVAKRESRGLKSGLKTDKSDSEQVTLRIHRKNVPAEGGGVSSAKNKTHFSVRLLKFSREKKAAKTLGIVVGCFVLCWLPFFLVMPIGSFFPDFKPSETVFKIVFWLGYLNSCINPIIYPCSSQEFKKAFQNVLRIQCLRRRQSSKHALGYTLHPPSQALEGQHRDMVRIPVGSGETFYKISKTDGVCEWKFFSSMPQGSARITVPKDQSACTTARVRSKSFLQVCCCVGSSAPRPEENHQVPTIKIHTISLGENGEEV
UniProt P22086: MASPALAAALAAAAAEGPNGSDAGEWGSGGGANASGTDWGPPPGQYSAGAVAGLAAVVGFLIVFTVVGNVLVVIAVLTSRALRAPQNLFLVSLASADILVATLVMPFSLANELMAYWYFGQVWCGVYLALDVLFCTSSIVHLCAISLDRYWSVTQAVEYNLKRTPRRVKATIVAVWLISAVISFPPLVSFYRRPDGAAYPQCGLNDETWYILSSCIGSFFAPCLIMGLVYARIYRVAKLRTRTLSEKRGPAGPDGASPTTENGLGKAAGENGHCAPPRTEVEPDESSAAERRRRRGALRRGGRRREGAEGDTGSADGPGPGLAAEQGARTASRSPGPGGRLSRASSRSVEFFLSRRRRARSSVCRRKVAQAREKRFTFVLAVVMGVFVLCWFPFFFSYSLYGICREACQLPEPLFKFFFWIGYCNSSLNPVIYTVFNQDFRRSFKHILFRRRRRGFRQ
UniProt P19328: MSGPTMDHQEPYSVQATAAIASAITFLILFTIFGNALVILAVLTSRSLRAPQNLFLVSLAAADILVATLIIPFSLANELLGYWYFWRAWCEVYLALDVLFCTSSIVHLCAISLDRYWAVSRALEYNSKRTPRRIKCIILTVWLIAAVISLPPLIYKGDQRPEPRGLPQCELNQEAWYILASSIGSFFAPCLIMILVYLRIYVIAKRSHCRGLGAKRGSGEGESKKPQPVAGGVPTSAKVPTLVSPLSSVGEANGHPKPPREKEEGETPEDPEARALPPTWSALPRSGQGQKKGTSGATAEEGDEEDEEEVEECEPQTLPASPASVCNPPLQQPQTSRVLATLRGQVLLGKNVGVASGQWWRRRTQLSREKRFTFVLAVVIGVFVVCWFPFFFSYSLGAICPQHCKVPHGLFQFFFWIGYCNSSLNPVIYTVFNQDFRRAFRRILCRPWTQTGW
UniProt P22909: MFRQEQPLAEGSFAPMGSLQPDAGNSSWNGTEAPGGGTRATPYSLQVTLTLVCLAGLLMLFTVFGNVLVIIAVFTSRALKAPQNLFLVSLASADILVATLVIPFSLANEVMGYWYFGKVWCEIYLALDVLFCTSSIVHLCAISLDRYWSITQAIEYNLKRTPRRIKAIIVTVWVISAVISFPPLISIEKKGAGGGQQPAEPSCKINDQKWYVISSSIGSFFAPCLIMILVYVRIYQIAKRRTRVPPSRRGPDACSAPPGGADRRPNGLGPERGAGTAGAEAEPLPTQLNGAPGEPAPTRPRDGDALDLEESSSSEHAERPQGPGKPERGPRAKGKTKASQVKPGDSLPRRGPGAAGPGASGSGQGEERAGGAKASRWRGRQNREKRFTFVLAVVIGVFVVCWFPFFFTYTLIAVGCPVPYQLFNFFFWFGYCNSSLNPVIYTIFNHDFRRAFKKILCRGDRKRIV
UniProt P18090, whole entry, looked up: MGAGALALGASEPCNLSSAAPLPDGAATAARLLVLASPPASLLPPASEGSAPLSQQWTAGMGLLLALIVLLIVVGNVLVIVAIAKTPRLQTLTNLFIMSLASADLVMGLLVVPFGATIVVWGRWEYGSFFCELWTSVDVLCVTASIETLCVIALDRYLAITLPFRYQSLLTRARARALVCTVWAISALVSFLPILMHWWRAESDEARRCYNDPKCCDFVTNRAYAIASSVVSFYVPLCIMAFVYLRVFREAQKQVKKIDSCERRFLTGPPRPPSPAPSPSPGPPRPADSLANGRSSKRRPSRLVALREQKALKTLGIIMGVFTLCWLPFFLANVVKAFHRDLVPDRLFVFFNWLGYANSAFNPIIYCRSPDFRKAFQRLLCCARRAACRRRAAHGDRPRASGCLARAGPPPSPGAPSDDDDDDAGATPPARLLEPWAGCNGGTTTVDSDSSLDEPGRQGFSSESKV
UniProt P10608, whole entry, looked up: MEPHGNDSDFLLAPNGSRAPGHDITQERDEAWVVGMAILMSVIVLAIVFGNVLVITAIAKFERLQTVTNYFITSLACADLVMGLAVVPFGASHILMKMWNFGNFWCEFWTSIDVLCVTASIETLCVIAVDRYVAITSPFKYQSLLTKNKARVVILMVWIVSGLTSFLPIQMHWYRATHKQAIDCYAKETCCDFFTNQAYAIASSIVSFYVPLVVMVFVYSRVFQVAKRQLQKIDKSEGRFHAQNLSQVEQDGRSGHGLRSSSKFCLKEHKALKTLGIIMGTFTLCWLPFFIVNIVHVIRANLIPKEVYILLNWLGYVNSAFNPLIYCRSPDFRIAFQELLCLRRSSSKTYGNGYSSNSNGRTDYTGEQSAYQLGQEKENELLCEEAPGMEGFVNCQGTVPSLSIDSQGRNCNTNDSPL
UniProt P26255: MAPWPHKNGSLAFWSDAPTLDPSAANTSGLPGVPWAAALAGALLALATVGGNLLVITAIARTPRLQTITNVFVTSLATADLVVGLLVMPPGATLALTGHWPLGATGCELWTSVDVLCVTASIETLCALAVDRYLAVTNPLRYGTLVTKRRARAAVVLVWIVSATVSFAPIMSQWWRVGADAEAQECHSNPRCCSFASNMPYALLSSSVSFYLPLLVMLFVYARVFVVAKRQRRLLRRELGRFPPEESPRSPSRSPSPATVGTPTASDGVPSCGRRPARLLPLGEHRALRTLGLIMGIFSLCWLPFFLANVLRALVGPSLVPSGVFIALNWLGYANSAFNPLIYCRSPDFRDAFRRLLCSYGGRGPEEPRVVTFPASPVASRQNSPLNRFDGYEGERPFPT

Assays:
[1] = molecular target: Adrenergic receptor alpha (Rattus norvegicus) (UniProt P15823+P23944+P43140+P22086+P19328+P22909); assay: Relative affinity for Alpha adrenergic receptor; assay type: protein assay
[2] = molecular target: Adrenergic receptor beta (Rattus norvegicus) (UniProt P18090+P10608+P26255); assay: Relative affinity for Beta adrenergic receptor; assay type: protein assay

CNCC(c1ccc(O)c(O)c1)S(=O)(=O)O (racemic)
Relative affinity [1]: 0.17 | Relative affinity [2]: 0.026

NCC(c1ccc(O)c(O)c1)S(=O)(=O)O (racemic)
Relative affinity [1]: 0.47 | Relative affinity [2]: 0.022

CC(C)NCC(c1ccc(O)c(O)c1)S(=O)(=O)O (racemic)
Relative affinity [1]: 0.052 | Relative affinity [2]: 0.32
